Numbering of substitutions follows the chain as printed. Names may count otherwise. Non-standard residues stand in square brackets, D forms with d. No end group written: not given here. pT = C[C@@H](OP(=O)(O)O)[C@H](N)C(=O)O
T1: PoloBoxtide-optimal, MAGPMQ-S-pT-P-LNGAKK
T1 construct: Synthetic; core Met-Gln-Ser-pThr-Pro-Leu; also called optimal phosphopeptide ligand; optimal PBD phosphopeptide
T1 peptide: MAGPMQS[pT]PLNGAKK

T2: Cdc25C, mitotically phosphorylated (up-shifted) form, endogenous in nocodazole-arrested HeLa cells (human, UniProt P30307 1-473, limits assumed, extensively phosphorylated at the N-terminus in mitosis, including phosphothreonine at 130)
T2 construct: also called mitotically up-shifted form of Cdc25C; mitotically phosphorylated Cdc25C
T2 sequence (looked up): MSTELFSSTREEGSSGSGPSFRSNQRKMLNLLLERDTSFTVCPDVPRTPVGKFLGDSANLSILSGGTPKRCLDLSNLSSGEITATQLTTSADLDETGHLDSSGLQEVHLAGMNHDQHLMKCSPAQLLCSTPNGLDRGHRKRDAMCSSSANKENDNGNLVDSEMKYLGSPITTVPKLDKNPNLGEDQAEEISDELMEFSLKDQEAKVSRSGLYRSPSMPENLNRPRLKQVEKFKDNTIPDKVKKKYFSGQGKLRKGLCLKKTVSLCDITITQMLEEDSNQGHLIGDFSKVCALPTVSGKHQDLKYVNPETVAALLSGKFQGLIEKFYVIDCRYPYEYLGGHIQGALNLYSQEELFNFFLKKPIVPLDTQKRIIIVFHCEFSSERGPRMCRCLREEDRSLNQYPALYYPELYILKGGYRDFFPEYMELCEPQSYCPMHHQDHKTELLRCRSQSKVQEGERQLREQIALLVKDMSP

B1: Plk1 PBD (residues 326-603) H538A/K540M (other)
chain: SIAPSSLDPSNRKPLTVLNKGLENPLPERPREKEEPVVRETGEVVDCHLSDMLQQLHSVNASKPSERGLVRQEEAEDPACIPIFWVSKWVDYSDKYGLGYQLCDNSVGVLFNDSTRLILYNDGDSLQYIERDGTESYLTVSSHPNSLMKKITLLKYFRNYMSEHLLKAGANITPREGDELARLPYLRTWFRTRSAIILHLSNGSVQINFFQDATMLILCPLMAAVTYIDEKRDFRTYRLSLLEEYGCCKELASRLRYARTMVDKLLSSRSASNRLKAS
notes: also called His/Lys pincer mutant
B2: His-Xpress-tagged Plk1 PBD (residues 326-603) H538A/K540M (other)
chain: B1 chain
notes: the text speaks of the mutants in the plural without naming them there; not shown: His-Xpress tag
B3: His-Xpress-tagged Plk1 PBD (residues 326-603) H538E/K540M (other)
chain: B1 chain with A213E
notes: as for B2

Columns and labels:
[1] = molecular target: T1, PoloBoxtide-optimal, …; experiment: isothermal titration calorimetry
[2] = molecular target: T2, Cdc25C, mitotically phosphorylated …; experiment: Ni2+ bead pull-down from nocodazole-arrested transfected HeLa cells, blot α-Cdc25

Binder	binding result [1]	binding result [2]
B1	no binding (tested: molar ratio about 2.7)	
B2		no binding
B3		no binding
